Source: patent publication US20170291890A1 (Epizyme, Inc., priority 2014, published 2017)
Read-outs that look alike come from different tables or passages of the source.

By UniProt entry, the sequences of proteins in these tests, tags left out. Residues count along the entry.
UniProt Q9H3R0, 2-372 limits assumed: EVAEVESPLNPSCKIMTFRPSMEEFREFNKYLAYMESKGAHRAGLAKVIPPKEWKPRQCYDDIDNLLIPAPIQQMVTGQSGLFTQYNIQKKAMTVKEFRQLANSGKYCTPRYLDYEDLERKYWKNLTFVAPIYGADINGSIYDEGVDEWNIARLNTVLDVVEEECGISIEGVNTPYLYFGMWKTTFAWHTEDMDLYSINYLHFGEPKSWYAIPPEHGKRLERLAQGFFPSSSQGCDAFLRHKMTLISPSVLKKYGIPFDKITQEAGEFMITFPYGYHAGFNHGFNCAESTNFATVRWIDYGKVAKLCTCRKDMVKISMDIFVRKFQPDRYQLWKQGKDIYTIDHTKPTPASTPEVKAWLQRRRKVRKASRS
UniProt P29375, 1-1090 limits assumed: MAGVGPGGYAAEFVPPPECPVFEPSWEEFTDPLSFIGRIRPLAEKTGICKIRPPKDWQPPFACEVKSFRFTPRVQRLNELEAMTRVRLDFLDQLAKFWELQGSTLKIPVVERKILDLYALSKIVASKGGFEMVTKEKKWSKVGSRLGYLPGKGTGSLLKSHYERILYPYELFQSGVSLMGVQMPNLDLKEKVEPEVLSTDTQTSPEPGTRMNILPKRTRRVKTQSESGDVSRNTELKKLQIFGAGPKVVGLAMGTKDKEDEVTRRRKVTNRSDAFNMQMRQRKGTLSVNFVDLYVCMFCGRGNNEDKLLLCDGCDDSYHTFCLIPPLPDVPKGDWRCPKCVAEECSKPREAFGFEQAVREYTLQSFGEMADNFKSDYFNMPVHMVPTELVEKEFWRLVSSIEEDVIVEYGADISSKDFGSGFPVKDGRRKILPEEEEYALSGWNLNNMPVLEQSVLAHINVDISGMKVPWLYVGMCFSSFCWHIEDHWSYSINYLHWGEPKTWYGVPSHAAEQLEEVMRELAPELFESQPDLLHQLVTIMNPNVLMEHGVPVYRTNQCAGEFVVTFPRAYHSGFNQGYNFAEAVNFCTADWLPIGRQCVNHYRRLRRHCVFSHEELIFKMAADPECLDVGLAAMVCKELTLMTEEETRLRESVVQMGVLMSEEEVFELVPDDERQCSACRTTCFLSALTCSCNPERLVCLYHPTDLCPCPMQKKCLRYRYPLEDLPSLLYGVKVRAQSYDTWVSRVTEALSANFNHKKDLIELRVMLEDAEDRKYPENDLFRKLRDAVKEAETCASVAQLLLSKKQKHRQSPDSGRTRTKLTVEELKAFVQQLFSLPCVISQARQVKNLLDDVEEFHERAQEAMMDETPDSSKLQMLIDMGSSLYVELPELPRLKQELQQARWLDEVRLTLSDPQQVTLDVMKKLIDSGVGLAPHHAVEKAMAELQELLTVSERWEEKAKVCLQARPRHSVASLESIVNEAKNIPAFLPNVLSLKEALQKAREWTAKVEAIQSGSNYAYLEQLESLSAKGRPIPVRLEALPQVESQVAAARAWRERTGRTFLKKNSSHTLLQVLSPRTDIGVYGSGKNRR
UniProt O75164, 1-350 limits assumed: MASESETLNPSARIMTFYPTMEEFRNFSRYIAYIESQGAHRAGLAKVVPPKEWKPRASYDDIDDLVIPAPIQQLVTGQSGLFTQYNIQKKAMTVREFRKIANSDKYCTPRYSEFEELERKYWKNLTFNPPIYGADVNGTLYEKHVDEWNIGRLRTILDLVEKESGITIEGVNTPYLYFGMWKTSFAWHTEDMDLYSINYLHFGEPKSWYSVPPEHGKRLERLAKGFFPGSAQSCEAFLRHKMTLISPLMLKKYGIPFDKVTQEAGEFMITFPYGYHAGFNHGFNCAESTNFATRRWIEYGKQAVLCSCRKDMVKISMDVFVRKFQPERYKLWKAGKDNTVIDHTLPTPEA

Columns and labels:
KDM4C = KDM4C (Homo sapiens, UniProt Q9H3R0); assay: KDM4C Assay (SAMDI mass spectrometry demethylase assay); details: read-out: 4C IC50, N-terminal GST-tagged KDM4C 2-372
Description: (§1) N-terminal GST-tagged KDM4C^2-372 was purchased from BPS Biosciences. Peptides were synthesized by BioPeptide and all other reagents were purchased from Sigma-Aldrich at the highest level of purity possible. Assays were performed in a 50 μL volume in 384-well V-bottom polypropylene microplates (Greiner) at 25° C. Optimized 1× assay buffer was 50 mM HEPES (pH=8.0), 100 μM sodium ascorbate, 20 mM NaCl, 10 μM ammonium iron sulfate, 1 mM tris(2-carboxyethyl)phosphine (TCEP), 0.002% Tween-20, and 0.005% BSG. For compound screening, 35 μL of KDM4C^2-372 (final concentration, f.c.=5 nM) was added using a Multidrop Combi and preincubated with 1 μL of test compound (f.c.=10 μM) for 30 minutes and subsequently 15 μL of peptide with the following sequence NH2-ARTKQTAR(Kme3)STGGKAPRKQLA(K-Ahx-Biotin)-amide (f.c.=500 nM) and 2-oxoglutarate (f.c.=15 μM) was added by Multidrop Combi to begin the reaction. Reactions proceeded for 150 minutes and were stopped by the addition of 5 μL of formic acid (f.c.=0.5%) using a Multidrop Combi and then analyzed by SAMDI Tech Inc.
(§2) SAMDI Tech analyzed all reactions using self-assembled monoloayer desorption/ionization technology as previously described (Gerard-Levin Z A, Scholle M D, Eisenberg A H, et al.: High-throughput screening of small molecule libraries using SAMDI mass spectrometry. ACS Comb Sci 2011; 13:347-350). Briefly, a 2 μL sample of the stopped demethylase reactions were transferred to a SAMDI array coated with 384 biotin-neutravidin spots using a 384-channel pipet station. The SAMDI arrays were incubated for 1 h in a humidified chamber, followed by washing of the surface with deionized ultra-filtered water (DIUF) and drying under nitrogen. A matrix of 30 mg/ml 2′,4′,6′-Trihydroxyacetophenone monohydrate (THAP) in acetone was applied using a TPP Mosquito 1.2 μL tip by dispensing 50 nL on each of the 384 spots on the array. SAMDI-MS was run using acquisition method ReflectorPositiveUTX. The % conversion of substrate to product was calculated using the AUC of the substrate and product peptide peaks.
(§3) An IC50 value was determined by contacting various concentrations of a test compound with one of the KDM4A, KDM4C or KDMSC enzyme constructs and plotting a dose-response curve which associates the amount of inhibition of the enzyme relative to the concentration of the test compound. From the curve, the IC50 value (which represents the concentration of the test compound necessary to inhibit maximal enzymatic activity by 50%) was determined. Additionally, the slope of the linear range of the plotted curve, which indicates the speed with which the curve rises between the minimum and maximum, was calculated.

KDM5A = KDM5A (Homo sapiens, UniProt P29375); assay: KDM5A Assay (SAMDI mass spectrometry demethylase assay); details: read-out: 5A IC50, C-terminal FLAG-tagged KDM5A 1-1090
Description: as §1, with “C-terminal FLAG-tagged KDM5A^1-1090” for “N-terminal GST-tagged KDM4C^2-372”, “[…]” for “KDM4C^2-372”, “f.c.=20” for “f.c.=5”, “NH2-ART[Kme-3]QTARKSTGGKA[K-Ahx-Biot]-amide (f.c.=250” for “NH2-ARTKQTAR(Kme3)STGGKAPRKQLA(K-Ahx-Biotin)-amide (f.c.=500”
as §2, §3

KDM4A = KDM4A (Homo sapiens, UniProt O75164); assay: KDM4A Assay (SAMDI mass spectrometry demethylase assay); details: read-out: 4A IC50; N-terminal His-tagged KDM4A 1-350; class symbols
Description: N-terminal His-tagged KDM4A^1-350 was purchased from BPS Biosciences. Peptides were synthesized by BioPeptide and all other reagents were purchased from Sigma-Aldrich at the highest level of purity possible. Assays were performed in a 50 μL volume in 384-well V-bottom polypropylene microplates (Greiner) at 25° C. Optimized 1× assay buffer was 50 mM HEPES (pH=8.0), 100 μM sodium ascorbate, 20 mM NaCl, 10 μM ammonium iron sulfate, 1 mM tris(2-carboxyethyl)phosphine (TCEP), 0.002% Tween-20, and 0.005% BSG. […] Reactions proceeded for 120 minutes and were stopped by the addition of 5 μL of formic acid (f.c.=0.5%) using a Multidrop Combi and then analyzed by SAMDI Tech Inc.
SAMDI Tech analyzed all reactions using self-assembled monoloayer desorption/ionization technology as previously described (Gerard-Levin Z A, Scholle M D, Eisenberg A H, et al.: High-throughput screening of small molecule libraries using SAMDI mass spectrometry. ACS Comb Sci 2011; 13:347-350). […] The % conversion of substrate to product was calculated using the AUC of the substrate and product peptide peaks.
An IC50 value was determined by contacting various concentrations of a test compound with one of the KDM4A, KDM4C or KDMSC enzyme constructs and plotting a dose-response curve which associates the amount of inhibition of the enzyme relative to the concentration of the test compound. […]

SMILES | IC50 (KDM4C; class symbols) | IC50 (KDM5A; numeric bound) | IC50 (KDM4A) | IC50 (KDM5A; class symbols) | IC50 (KDM4C; numeric bound)
C[C@@H]1CN(C)C[C@H]1n1ncc(-c2ccccc2)c1Nc1cnccc1C(=O)O (relative stereo) | 10 to 100 µM | > 100 µM |  |  | 
Cc1nn(C2CCOCC2)cc1Nc1cnccc1C(=O)O | 0.1 to 1 µM |  | 0.001 to 0.1 µM | 1 to 10 µM | 
C[C@@H]1CNC[C@H]1n1ncc(-c2ccccc2)c1Nc1cnccc1C(=O)O (relative stereo) | 10 to 100 µM |  |  | 10 to 100 µM | 
N[C@H]1CC[C@@H](n2ncc(-c3ccccc3)c2Nc2cnccc2C(=O)O)CC1 (relative stereo) |  |  |  | 1 to 10 µM | > 100 µM
CNCCN1CCCC(n2ncc(-c3ccccc3)c2Nc2cnccc2C(=O)O)C1 (stereo not drawn) | 10 to 100 µM |  |  | 10 to 100 µM | 
CN(C)CCN1CCCC(n2ncc(-c3ccccc3)c2Nc2cnccc2C(=O)O)C1 (stereo not drawn) | 10 to 100 µM |  |  | 1 to 10 µM | 
Cc1cnn(C2CCNCC2)c1Nc1cnccc1C(=O)O | 10 to 100 µM |  |  | 10 to 100 µM | 
CN(C)[C@H]1CC[C@@H](n2ncc(-c3ccccc3)c2Nc2cnccc2C(=O)O)CC1 (relative stereo) | 10 to 100 µM |  |  | 10 to 100 µM | 
O=C(O)c1ccncc1Nc1c(-c2ccccc2)cnn1C1CCCNC1 (stereo not drawn) |  | > 100 µM |  |  | > 100 µM
CCN1CCCC(n2ncc(-c3ccccc3)c2Nc2cnccc2C(=O)O)C1 (stereo not drawn) | 10 to 100 µM |  |  | 10 to 100 µM | 
